# Laboratory results as given in patent publication US10080744B2, “Thiazoles as modulators of RORγt” (Janssen Pharmaceutica NV, priority 2014, dated 2018).
# Test system: IL-17 production by CD4 T cells
# Test: cells
# Conditions: Homo sapiens, 72 h, read-out: Human Th17 Assay, IC50
# Experimental: The human Th17 assay tests the effect of RORγt modulatory compounds on IL-17 production by CD4 T cells under conditions which favor Th17 differentiation. Total CD4^+ T cells were isolated from the peripheral blood mononuclear cells (PBMC) of healthy donors using a CD4^+ T cell isolation kit II, following the manufacturer's instructions (Miltenyi Biotec). […] 50 μL of compound at titrated concentrations in DMSO were added into each well at final DMSO concentration at 0.2%. Cells were incubated for 1 hour, then 50 μL of Th17 cell differentiation medium was added to each well. […] Cells were cultured at 37° C. and 5% CO2 for 3 days. Supernatants were collected and the accumulated IL-17 in culture was measured by using MULTI-SPOT® Cytokine Plate following manufacture's instruction (Meso Scale Discovery). The plate was read using Sector Imager 6000, and IL-17 concentration was extrapolated from the standard curve. The IC50s were determined by GraphPad.
compound,measurement,value
"C[C@H](NS(=O)(=O)c1ccc(-c2sc(-c3nnc(CC(C)(C)C(=O)O)o3)nc2CC2CCC2)c2cnccc12)C(F)(F)F [Example 3/17, (S)-3-(5-(4-(Cyclobutylmethyl)-5-(5-(N-(1,1,1-trifluoropropan-2-yl)sulfamoyl)isoquinolin-8-yl)thiazol-2-yl)-1,3,4-oxadiazol-2-yl)-2,2-dimethylpropanoic Acid]",IC50,750 nM
